The test has as its system MTT (mouse pheochromocytoma). Put plainly: IC50 of cell viability (ATP content). The conditions noted are these: (24 or 48 h). The method, boiled down: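 MTT mouse pheochromocytoma cells (5 µl of 200,000 cells/ml per well, white 1536-well plates, DMEM with 5% FBS and 1% horse serum) were cultured overnight at 37°C, 5% CO2. They then received 23 nl library compound in DMSO by pintool at 8 concentrations (final 0.5 nM to 46 µM) for 24 or 48 hrs. CellTiter-Glo ATP luminescence was read after 15 minutes. Signals were normalised to positive-control (100% inhibition) and DMSO (0%) wells, and IC50 came from a four-parameter logistic fit.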

Molecules are shown by their SMILES.

Regarding `CNC1C[N]23CC[N]45CC[N]67CC(=O)[O-]->[Gd+3]<-4<-2<-6(<-[O]=1)(<-[O]=C(C7)NC)(<-[O-]C(=O)C5)<-[O-]C(=O)C3` [Gadodiamide], the “IC50 of cell viability” value is above 46 µM.

With `CC1C[N]23->[Gd+3]45678(<-[O-]C(=O)C[N]->4(CC[N]->5(CC(=O)[O-]->6)CC2)CC[N]->7(CC(=O)[O-]->8)CC3)<-[OH]1` (stereo not given) [GADOTERIDOL], the “IC50 of cell viability” value was above 46 µM.

Regarding `CC1C[N]23->[Gd+3]45678(<-[O-]C(=O)C[N]->4(CC[N]->5(CC(=O)[O-]->6)CC2)CC[N]->7(CC(=O)[O-]->8)CC3)<-[OH]1` (stereo not given) [Gadoteridol], the “IC50 of cell viability” value was above 46 µM.

As for `COc1cc(Br)c(C[N+]2(CCOCCC3CCC4CC3C4(C)C)CCOCC2)cc1OC` (stereo not given) [PINAVERIUM BROMIDE], the “IC50 of cell viability” value was above 46 µM.

Regarding `CNC/1=[O]/[Gd+3]23456\7[O-]C(=O)C[N]2(CC[N@]3(CC(=O)[O-]4)C1)CC[N@@]5(CC(=O)[O-]6)C\C(=[O]7)NC` [GADODIAMIDE], the “IC50 of cell viability” value was above 46 µM.

(Values after the supplement of paper PMC3974653.)
